Laboratory results reported in PubChem BioAssay AID1496 (Sanford-Burnham Center for Chemical Genomics, 2009).
The list shows a part of the results, in another mix than the full data. Some results for these compounds are left out of this collection, so the calls shown say nothing about other tests. Activity calls are given as the source filed them.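 Rule for the calls: active = inhibition over about 50% at 20 µM in the single-dose screen (limit read from the data); inactive = the rest.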

Amino acid sequences for entries named in this document (tags omitted).
UniProt Q01196, whole entry, looked up: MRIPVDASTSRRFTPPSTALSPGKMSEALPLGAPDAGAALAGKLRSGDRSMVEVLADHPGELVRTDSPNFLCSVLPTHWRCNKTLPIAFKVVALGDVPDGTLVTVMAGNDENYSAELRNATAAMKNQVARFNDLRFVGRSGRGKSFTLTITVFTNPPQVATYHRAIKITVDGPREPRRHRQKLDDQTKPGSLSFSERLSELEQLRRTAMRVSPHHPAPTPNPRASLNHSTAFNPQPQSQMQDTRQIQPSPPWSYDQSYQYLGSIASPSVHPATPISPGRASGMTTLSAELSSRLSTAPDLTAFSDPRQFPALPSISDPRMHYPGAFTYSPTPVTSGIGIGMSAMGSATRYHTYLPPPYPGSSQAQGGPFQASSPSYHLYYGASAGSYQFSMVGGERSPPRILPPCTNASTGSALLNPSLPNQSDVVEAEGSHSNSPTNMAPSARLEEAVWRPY
UniProt Q13951, whole entry, looked up: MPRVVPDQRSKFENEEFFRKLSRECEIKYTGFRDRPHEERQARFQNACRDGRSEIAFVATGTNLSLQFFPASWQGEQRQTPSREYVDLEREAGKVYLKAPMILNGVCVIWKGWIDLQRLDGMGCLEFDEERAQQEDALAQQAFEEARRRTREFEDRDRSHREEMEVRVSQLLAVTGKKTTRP

Each compound was assayed against Runt-related transcription factor 1 (Homo sapiens) + Core-binding factor subunit beta (Homo sapiens) (UniProt Q01196+Q13951) (assay: inhibitors of RUNX1 Runt–CBFb binding, primary screen, biochemical, FRET, Cerulean-Runt, Venus-CBFb, uHTS (AID 1496;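 note: 0% = DMSO wells and 100% = excess unlabeled CBFb competitor control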)). Details: Cerulean-Runt/Venus-CBFb FRET ratio 530/480, 1 h; at 20 µM; active compounds read high.
Procedure, shortened: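 test system = Cerulean-Runt domain fusion protein, energy donor | probe or stimulus = Venus-CBFb binding partner, 100 nM | incubation = two 1 h room-temperature incubations shielded from light | detection = fluorescence energy transfer, 422 nm excitation, 530/480 nm emission | measure = loss of energy transfer signal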

**Q.** With `COc1cccc(C(=O)NCC2(N3CCCCC3)CCCCC2)c1` as the compound, how does the inhibition read?
**A.** Its inhibition is inactive: 0.1%.

**Q.** How did the inhibition turn out when `COc1ccc(Br)c(C(=O)NCC2(N3CCCCC3)CCCCC2)c1` was run?
**A.** Its inhibition is inactive: 6.1%.

**Q.** For `CN(C)c1cccc(C(=O)NCC2(N(C)C)CCCCC2)c1`, which inhibition is on record?
**A.** The inhibition was inactive: -1.1%.

**Q.** `O=C(OC1CN2CCC1CC2)C(CO)(c1ccccc1)c1ccccc1` (stereo unspecified) was tested. Which inhibition did it give?
**A.** Its inhibition is inactive: -0.5%.

**Q.** For `CC(C)N1C(=O)CC2(CCN(CCOC(=O)C(O)(c3ccccc3)c3ccccc3)CC2)C1=O`, which inhibition is on record?
**A.** The inhibition was inactive: -2.6%.

**Q.** With `CCN(CC)CC(C)C(C)OC(=O)C(O)(c1ccccc1)c1ccccc1` (stereo unspecified) as the compound, how does the inhibition read?
**A.** Its inhibition is inactive: -0.2%.

**Q.** How did the inhibition turn out when `O=C(NCC1(N2CCCCC2)CCCCC1)c1cc([N+](=O)[O-])ccc1Cl` was run?
**A.** Its inhibition is inactive: -0.9%.

**Q.** With `C=CCN1CCN(CCOC(=O)C(O)(c2ccccc2)c2ccccc2)CC1` as the compound, how does the inhibition read?
**A.** Its inhibition is inactive: -0.1%.

**Q.** For `CCN1CCCC(OC(=O)C2(O)c3ccccc3C=Cc3ccccc32)C1` (stereo unspecified), which inhibition is on record?
**A.** Its inhibition is inactive: -2%.

**Q.** How did the inhibition turn out when `CN(C)C1CCCC1OC(=O)C(O)(c1ccccc1)c1ccccc1` (stereo unspecified) was run?
**A.** Its inhibition is inactive: -0.4%.

**Q.** How did the inhibition turn out when `Cc1ccccc1C(=O)NCC1(N2CCCCC2)CCCCC1` was run?
**A.** Its inhibition is inactive: 2.1%.
